# Experiment: Persistence of FITC-BSA tagged particles in blood after intravenous introduction (fluorometry)
# Type: in vivo
# Details: Balb/C mice
# Description: One feature of the present invention is that a particle preparation of the present invention is capable of remaining in the host for a length of time, longer than proteins, antibodies, vaccines, or antimicrobials are known to last in a mammalian host. […] Particle were tagged by conjugating with FITC-labeled bovine serum albumin (BSA) protein. BSA-tagged particles or BSA alone were introduced intravenously into two groups of Balb/C mice (at approximately 100 micrograms of BSA per 1 mg of particles; each group having at least 5 mice) which was followed by the collection of blood samples from each mouse at specific time points using retro-orbital blood collection methods. The amount of BSA present in each sample was assessed by fluorometry. The tagged particles in FIG. 5A were FITC-BSA conjugated to NIPA particles of about 5.0 micrometers (typical diameter). […] In addition, greater than 20% of the BSA-NIPA particles were still present in the blood after two weeks.
# In FIG. 5B, particles were HPC (approximately 5.0 micrometers, typical diameter) conjugated to BSA which were introduced intravenously into Balb/C mice and compared with mice injected with FITC-labeled BSA.
substance,measurement,setting,value
"bovine serum albumin [BSA, reference compound]",time present in the blood,"FITC label, FIG. 5A",less than two
same,presence of labeled BSA in the host by day 2,"day 2, FIG. 5B",virtual absence

# Source: patent US20070248680A1, “Particles for Inactivating Toxins” (Board of Regents, The University of Texas System, priority 2005, published 2007)
